Experimental data taken from ChEMBL document CHEMBL1155226, “Design, synthesis, and structure-activity relationship of a novel series of 2-aryl 5-(4-oxo-3-phenethyl-2-thioxothiazolidinylidenemethyl)furans as HIV-1 entry inhibitors” (J Med Chem, 2009).

Key:
Assay type in all cases: functional, organism-based
[1] = test system: Human immunodeficiency virus 1; test: Antiviral activity against HIV1 3B replication in human MT2 cells exposed to light assessed as inhibition of p24 production after 4 days by ELISA
[2] = test system: Human immunodeficiency virus 1; test: Antiviral activity against HIV1 3B replication in human MT2 cells under dark condition assessed as inhibition of p24 production after 4 days by ELISA
[3] = test system: Human immunodeficiency virus 1; test: Antiviral activity against HIV1 isolate 94UG103 replication in human PBMC assessed as inhibition of p24 production after 7 days by ELISA

Measured: Activity

O=C(O)c1cc(-c2ccc(/C=C3\SC(=S)N(CCc4ccccc4)C3=O)o2)ccc1Br
active: [1] Dose-dependent effect | [2] Dose-dependent effect | [3] Dose-dependent effect

Cc1ccc(-c2ccc(/C=C3\SC(=S)N(CCc4ccccc4)C3=O)o2)cc1C(=O)O
active: [1] Dose-dependent effect | [2] Dose-dependent effect | [3] Dose-dependent effect

O=C(O)c1cc(-c2ccc(/C=C3\SC(=S)N(CCc4ccccc4)C3=O)o2)ccc1O
active: [1] Dose-dependent effect | [2] Dose-dependent effect | [3] Dose-dependent effect

O=C(O)c1cccc(-c2ccc(/C=C3\SC(=S)N(CCc4ccccc4)C3=O)o2)c1F
active: [1] Dose-dependent effect | [2] Dose-dependent effect | [3] Dose-dependent effect

CCc1ccc(-c2ccc(/C=C3\SC(=S)N(CCc4ccccc4)C3=O)o2)cc1C(=O)O
active: [1] Dose-dependent effect | [2] Dose-dependent effect | [3] Dose-dependent effect

COc1ccc(-c2ccc(/C=C3\SC(=S)N(CCc4ccccc4)C3=O)o2)cc1C(=O)O
active: [1] Dose-dependent effect | [2] Dose-dependent effect | [3] Dose-dependent effect

O=C(O)c1cc(-c2ccc(/C=C3\SC(=S)N(CCc4ccccc4)C3=O)o2)cnc1Cl
active: [1] Dose-dependent effect | [2] Dose-dependent effect | [3] Dose-dependent effect

O=C(O)c1cc(-c2ccc(/C=C3\SC(=S)N(CCc4ccccc4)C3=O)o2)ccc1Cl
active: [1] Dose-dependent effect | [2] Dose-dependent effect | [3] Dose-dependent effect

O=C(O)c1cc(-c2ccc(/C=C3\SC(=S)N(CCc4ccccc4)C3=O)o2)ccc1F
active: [1] Dose-dependent effect | [2] Dose-dependent effect | [3] Dose-dependent effect

Cc1c(C(=O)O)cccc1-c1ccc(/C=C2\SC(=S)N(CCc3ccccc3)C2=O)o1
active: [1] Dose-dependent effect | [2] Dose-dependent effect | [3] Dose-dependent effect

O=C(O)c1cc(-c2ccc(/C=C3\SC(=S)N(CCc4ccccc4)C3=O)o2)cnc1Br
active: [1] Dose-dependent effect | [2] Dose-dependent effect | [3] Dose-dependent effect

O=C(O)c1cncc(-c2ccc(/C=C3\SC(=S)N(CCc4ccccc4)C3=O)o2)c1
active: [1] Dose-dependent effect | [2] Dose-dependent effect | [3] Dose-dependent effect

O=C(O)c1cccc(-c2ccc(/C=C3\SC(=S)N(CCc4ccccc4)C3=O)o2)c1
active: [1] Dose-dependent effect | [2] Dose-dependent effect | [3] Dose-dependent effect

Cc1c(C(=O)O)cncc1-c1ccc(/C=C2\SC(=S)N(CCc3ccccc3)C2=O)o1
active: [1] Dose-dependent effect | [2] Dose-dependent effect | [3] Dose-dependent effect

O=C(O)c1cccc(-c2ccc(/C=C3\SC(=S)N(CCc4ccccc4)C3=O)o2)c1Cl
active: [1] Dose-dependent effect | [2] Dose-dependent effect | [3] Dose-dependent effect
